Assay results published in patent publication US6506878B1, “HMTF81 human 7-transmembrane receptor” (Smithkline Beecham Corporation, priority 1997, dated 2003).

Target: T1, HMTMF81 polypeptide (Homo sapiens, UniProt Q9Y271, E167G)
T1 construct: expressed in transfected cells
T1 sequence (Q9Y271 1-337 E167G): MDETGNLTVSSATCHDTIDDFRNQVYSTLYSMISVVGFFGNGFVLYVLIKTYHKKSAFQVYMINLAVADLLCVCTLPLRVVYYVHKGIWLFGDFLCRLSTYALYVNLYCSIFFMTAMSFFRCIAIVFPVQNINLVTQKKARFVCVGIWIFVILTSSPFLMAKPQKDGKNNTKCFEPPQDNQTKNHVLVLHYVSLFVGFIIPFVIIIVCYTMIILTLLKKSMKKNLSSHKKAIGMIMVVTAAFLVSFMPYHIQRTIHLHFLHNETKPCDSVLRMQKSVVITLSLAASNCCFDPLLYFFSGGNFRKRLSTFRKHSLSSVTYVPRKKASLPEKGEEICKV
Experiment: calcium mobilization in a HMTMF81 expressing cell line
Type: cell-based
Experimental: Similarly, HEK 293 cells expressing recombinant receptors are evaluated for the stimulation or inhibition of cAMP production using standard cAMP quantitation assays.

CCCCC/C=C/C/C=C/C=C\C=C/[C@@H](SC[C@H](N)C(=O)NCC(=O)O)[C@@H](O)CCCC(=O)O [LTD4, (5S, 6R)-6-S-cysteinylglycine-5-hydroxy-(7Z, 9Z, 11E, 14E)-eicosatetraenoic acid]
calcium mobilization response: induce calcium mobilization responses
